Laboratory results from ChEMBL document CHEMBL6087393, “Sensitive quantification of fibroblast activation protein and high-throughput screening for inhibition by FDA-approved compounds” (Eur J Med Chem, 2024).

Experiments:
[1] = target: T1, Prolyl endopeptidase FAP (Homo sapiens, UniProt Q12884); assay: Inhibition of recombinant human FAP extracted from S2 cells using fluorogenic FAP as specific substrate measured after 10 mins incubation by 7-amino-4-methylcoumarin in assay
T1 sequence (Q12884 whole entry): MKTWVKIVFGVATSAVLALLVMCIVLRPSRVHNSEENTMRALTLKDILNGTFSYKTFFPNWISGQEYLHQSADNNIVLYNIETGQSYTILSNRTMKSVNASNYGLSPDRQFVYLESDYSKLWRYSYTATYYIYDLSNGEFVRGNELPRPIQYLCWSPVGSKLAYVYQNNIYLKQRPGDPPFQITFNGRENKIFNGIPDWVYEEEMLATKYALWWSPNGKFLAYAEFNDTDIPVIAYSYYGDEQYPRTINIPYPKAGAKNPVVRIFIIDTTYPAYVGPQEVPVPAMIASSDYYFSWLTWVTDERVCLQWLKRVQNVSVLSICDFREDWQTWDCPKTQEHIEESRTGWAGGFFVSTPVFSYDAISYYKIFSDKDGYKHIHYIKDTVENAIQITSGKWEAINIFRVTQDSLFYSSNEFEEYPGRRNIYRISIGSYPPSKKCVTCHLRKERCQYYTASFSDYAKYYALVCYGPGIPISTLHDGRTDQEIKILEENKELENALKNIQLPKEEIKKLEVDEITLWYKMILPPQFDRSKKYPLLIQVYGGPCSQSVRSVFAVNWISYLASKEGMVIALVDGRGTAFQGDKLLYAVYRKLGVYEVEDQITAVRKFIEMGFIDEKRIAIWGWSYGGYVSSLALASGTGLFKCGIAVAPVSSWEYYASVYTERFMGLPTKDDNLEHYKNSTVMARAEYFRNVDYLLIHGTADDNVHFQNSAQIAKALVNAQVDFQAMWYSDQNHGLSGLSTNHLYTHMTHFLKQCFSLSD

[2] = target: T1, Prolyl endopeptidase FAP; assay: biochemical

Compound	IC50 [1] [nM]	Ki [2] [nM]
CC(C)(C)C(=O)Oc1ccc(S(=O)(=O)Nc2ccccc2C(=O)NCC(=O)O)cc1	1300	590
CC(C)(C)C(=O)Oc1ccc(S(=O)(=O)Nc2ccccc2C(=O)NCC(=O)O)cc1 [SIVELESTAT SODIUM]		730
